Assay results as given in USH1168H, “Inhibitors of protein kinase C activity as protectors against septic shock and reducers of ARDS” (priority 1991, dated 1993).
“Also recorded” adds a separate entry of the source.

Experiments:
rat aortic rings [1] = test: Direct contraction of rat aortic rings by phorbol dibutyrate; type: cell-based; details: rings incubated with LPS 10 ng/ml, then contracted with PDB
Protocol: Four rings were prepared from each rat and one ring allocated into each medium formulation. Data is presented as in FIG. 1.
Tissue preparation and incubation. Male Sprague-Dawley rats (250-350 g, Taconic Farms, Germantown, N.Y.) were used. Rat thoracic aortic rings were prepared and incubated as detailed by McKenna (14). In brief, 4 or 6 rings were prepared from each rat. Care was taken during dissection to maintain the patency of the endothelium. Some aortas were de-endothelialized before sectioning into rings by perfusion with phosphate buffered saline (PBS) containing 1% deoxycholate for 30 sec followed by a PBS and bubble rinse for 5 min. Rings were incubated in DME (Dulbecco's Modified Eagle's medium) supplemented with 1% fetal calf serum, 100 μg/ml streptomycin, and 100 U/ml penicillin. During incubation, the rings were exposed to combinations of LPS (10 or 35 ng/ml), H7 (25 μM), HA1004 (N-(2-guanidinoethyl)-5-isoquinolinesulfonamide) (25 μM), sphingosine (20 μM), or their vehicles. […] Rings used in measures of contractile performance were placed individually in Petri dishes containing 1.2 ml DME and were distributed so that tissue isolated from each aorta was allocated to every combination of treatments within an experiment. […]
(§1) Measurement of aortic ring contraction. […] Contractions by six or eight rings were measured simultaneously and recorded on multichannel strip chart recorders. […]

rat aortic rings [2] = test: NE-induced contraction of rat aortic rings after 16 h incubation with phorbol dibutyrate; type: cell-based
Protocol: (§2) (Panel B) Contraction to KCl by rings incubated and denoted with the same symbols as detailed above. Four rings were prepared from each rat and one ring allocated into each medium formulation to evaluate responses to NE. Rings were similarly prepared to determine responses to KCl. Data presented as in FIG. 1. N=6 rats apiece for assessment of responses to NE and KCl.
(§3) (Panel B) Contraction to KCl by rings incubated and denoted with the same symbols as detailed above. Four rings were prepared from each rat and one ring allocated into each medium formulation. Data is presented as in FIG. 1. N=8 rats for assessment of responses to both NE and KCl.
Tissue preparation and incubation. Male Sprague-Dawley rats (250-350 g, Taconic Farms, Germantown, N.Y.) were used. Rat thoracic aortic rings were prepared and incubated as detailed by McKenna (14). In brief, 4 or 6 rings were prepared from each rat. Care was taken during dissection to maintain the patency of the endothelium. Some aortas were de-endothelialized before sectioning into rings by perfusion with phosphate buffered saline (PBS) containing 1% deoxycholate for 30 sec followed by a PBS and bubble rinse for 5 min. […]
as §1

rat aortic rings [3] = test: KCl-induced contraction of rat aortic rings after 16 h incubation with phorbol dibutyrate; type: cell-based
Protocol: as §2, §3
Tissue preparation and incubation. Male Sprague-Dawley rats (250-350 g, Taconic Farms, Germantown, N.Y.) were used. Rat thoracic aortic rings were prepared and incubated as detailed by McKenna (14). In brief, 4 or 6 rings were prepared from each rat. Care was taken during dissection to maintain the patency of the endothelium. Some aortas were de-endothelialized before sectioning into rings by perfusion with phosphate buffered saline (PBS) containing 1% deoxycholate for 30 sec followed by a PBS and bubble rinse for 5 min. Rings were incubated in DME (Dulbecco's Modified Eagle's medium) supplemented with 1% fetal calf serum, 100 μg/ml streptomycin, and 100 U/ml penicillin. During incubation, the rings were exposed to combinations of LPS (10 or 35 ng/ml), H7 (25 μM), HA1004 (N-(2-guanidinoethyl)-5-isoquinolinesulfonamide) (25 μM), sphingosine (20 μM), or their vehicles. […] Rings used in measures of contractile performance were placed individually in Petri dishes containing 1.2 ml DME and were distributed so that tissue isolated from each aorta was allocated to every combination of treatments within an experiment. […] All tissue isolated from an aorta (six rings) was allocated to a single treatment. […]
as §1

protein kinase C = test: Protein kinase C activity in rat aortic rings after 16 h incubation; type: biochemical
Protocol: Tissue preparation and incubation. Male Sprague-Dawley rats (250-350 g, Taconic Farms, Germantown, N.Y.) were used. Rat thoracic aortic rings were prepared and incubated as detailed by McKenna (14). In brief, 4 or 6 rings were prepared from each rat. Care was taken during dissection to maintain the patency of the endothelium. Some aortas were de-endothelialized before sectioning into rings by perfusion with phosphate buffered saline (PBS) containing 1% deoxycholate for 30 sec followed by a PBS and bubble rinse for 5 min. Rings were incubated in DME (Dulbecco's Modified Eagle's medium) supplemented with 1% fetal calf serum, 100 μg/ml streptomycin, and 100 U/ml penicillin. During incubation, the rings were exposed to combinations of LPS (10 or 35 ng/ml), H7 (25 μM), HA1004 (N-(2-guanidinoethyl)-5-isoquinolinesulfonamide) (25 μM), sphingosine (20 μM), or their vehicles. […] Rings used in measures of contractile performance were placed individually in Petri dishes containing 1.2 ml DME and were distributed so that tissue isolated from each aorta was allocated to every combination of treatments within an experiment. […] All tissue isolated from an aorta (six rings) was allocated to a single treatment. The media and rings were rotated gently for 16-18 hr in an incubator at 37° C. under a 95% O2 -5% CO2 atmosphere.
Statistics. […]

[4] = 0.1 μM PDB, long-term incubation

## CCCC(=O)O[C@@H]1[C@@H](C)[C@@]2(O)[C@@H](C=C(CO)C[C@]3(O)C(=O)C(C)=C[C@@H]23)[C@@H]2C(C)(C)[C@]12OC(=O)CCC [PDB, 4β-phorbol-12,13-dibutyrate]
Rat aortic rings [1]
  maximum contractile performance to PDB after LPS: performed much better than identically incubated sister rings contracted with NE
Rat aortic rings [2]; [4]
  maximum contraction or sensitivity to NE; contractile defects: ineffective in altering maximum contraction or sensitivity to NE or KCl; also recorded: did not induce contractile defects
Rat aortic rings [2]; 1 or 10 μM PDB, 18 hr
  maximal contraction and sensitivity to NE: significantly impaired in maximal contraction and sensitivity to NE
Rat aortic rings [3]; [4]
  maximum contraction or sensitivity to KCl: ineffective in altering maximum contraction or sensitivity to NE or KCl
Rat aortic rings [3]; 10 μM PDB
  sensitivity to KCl: less sensitive to KCl
Rat aortic rings [3]; 1 or 10 μM PDB
  contractions when stimulated with KCl: significantly diminished contractions
Protein kinase C; PDB 1.0 μM or LPS 10 ng/ml, 16 h
  PKC activity in the cytosolic fraction: large decreases in PKC activity in the cytosolic fraction; also recorded: significantly less cytosolic PKC activity in PDB-incubated rings in comparison to LPS-incubated rings
Protein kinase C; PDB 1.0 μM, long-term incubation
  PKC activity in the membrane fraction: nonsignificant decreases in the membrane fraction
